The numbers were not newly measured in patent US20030104079A1, “Skin tissue regeneration promoters comprising ginsenoside Rb1” (Japan Science and Technology Corporation, Japan, priority 2000, published 2003), which cites them from elsewhere.

In the series the test system is permanent occlusion of the cortical branch of the middle cerebral artery. The note with it: intracerebroventricular administration; Wen et al. 1998; cited from earlier work.

B1: interleukin 3 (IL-3): one of colony stimulating factors (protein, UniProt P08700 20-152, looked up)
Interleukin-3: APMTQTTPLKTSWVNCSNMIDEIITHLKQPPLPLLDFNNLNGEDQDILMENNLRRPNLEAFNRAVKSLQNASAIESILKNLLPCLPLATAAPTRHPIHIKDGDWNEFRRKLTFYLKTLENAQAQQTTLSLAIF
B1: the “nerve cell protection and Bcl-xL expression” value is “protected nerve cells and promoted expression of Bcl-xL”.
